Experimental data: patent US6730675B2 (AstraZeneca AB, priority 1999, dated 2004)
pKi: −log10 of the molar value.

Target: T1, NMDA receptor glycine site (Rattus norvegicus, UniProt P35439)
T1 construct: The rat brain membranes used in the experiments were obtained from Analytical Biological Services Inc; tissue Analytical Biological Services Inc; host or cells: rat brain membranes (cerebral cortex and hippocampus, male Sprague Dawley rats)
Assay: Test A: Inhibition of binding of [3H]-MDL105,519 to brain membranes
Conditions: displacement of 1.2 nM [3H]MDL105,519, brain membranes
Source text: Test A: Inhibition of Binding of [^3H]-MDL105,519:
Binding of compounds to the NMDA receptor glycine site may be assessed by measuring the ability of test compounds to inhibit the binding of tritiated MDL105,519 to brain membranes bearing the receptor.
Briefly, fresh brain tissue including cerebral cortex and hippocampus from male Sprague Dawley rats was homogenized in 0.32 M sucrose and centrifuged at low speed to separate cellular membranes from other cellular components. The membranes were then washed 3 times using deionized water, followed by treatment with 0.04% Triton X-100. Finally, membranes were washed six times in 50 mM Tris citrate buffer, pH 7.4, and frozen at −80° C. until use.
[^3H]MDL105,519 (72 Ci/mmol) was purchased from Amersham. Cold MDL105,519 was purchased from Sigma/RBI. Binding assays were performed substantially in accordance with the protocol of B. M. Baron et al., J. Phannacol. […] Non specific binding was determined by using 100 μM of unlabeled MDL105,519. […] The plates were dried overnight at room temperature and bound radioactivity was measured on a Packard TopCount after the addition of 45 μL per well of the MICROSCINT O. […]
Data analysis: Data was analyzed using a Microsoft Excel spreadsheet and GraphPad Prizm software and potency of compounds is expressed as the Ki (nM).

pKi: 7.41
Compound: Cc1noc(C)c1Cn1nc(O)c2[nH]c3cc(Cl)ccc3c(=O)c2c1=O [Ex. 5]
